# Measurements reported in PubChem BioAssay AID1508614 (Milbrandt Lab, Department of Genetics, Washington …, 2020).
# Sequences of proteins named here, by UniProt entry; tags and fusion partners are left off. A change or cut given only in a name is not applied to a line headed by its entry.
# UniProt Q6SZW1: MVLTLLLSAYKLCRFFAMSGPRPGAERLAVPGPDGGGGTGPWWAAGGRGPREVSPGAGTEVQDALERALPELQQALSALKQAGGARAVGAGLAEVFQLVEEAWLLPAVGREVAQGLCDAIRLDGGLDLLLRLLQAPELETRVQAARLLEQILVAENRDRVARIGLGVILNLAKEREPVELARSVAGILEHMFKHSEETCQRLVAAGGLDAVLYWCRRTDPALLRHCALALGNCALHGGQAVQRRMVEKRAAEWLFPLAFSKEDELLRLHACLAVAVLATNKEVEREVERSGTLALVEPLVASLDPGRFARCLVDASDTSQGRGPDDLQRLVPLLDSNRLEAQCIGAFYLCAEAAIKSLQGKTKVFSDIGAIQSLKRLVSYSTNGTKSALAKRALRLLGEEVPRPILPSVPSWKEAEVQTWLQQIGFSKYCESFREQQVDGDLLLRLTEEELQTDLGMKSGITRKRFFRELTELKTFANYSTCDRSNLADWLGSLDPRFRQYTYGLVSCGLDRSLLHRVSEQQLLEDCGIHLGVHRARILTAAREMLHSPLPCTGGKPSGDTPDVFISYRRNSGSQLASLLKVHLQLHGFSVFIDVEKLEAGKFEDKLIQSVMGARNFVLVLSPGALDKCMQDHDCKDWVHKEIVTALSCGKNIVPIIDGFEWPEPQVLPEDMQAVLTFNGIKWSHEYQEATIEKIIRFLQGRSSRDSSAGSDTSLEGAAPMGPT
# Only a part is listed here, and it is no random draw. Active and inactive are the calls of the source.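 The calls were made as follows: active = compound whose remaining NAD level is above about 45 nM (limit read from the data); inactive = the rest.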
# Target: NAD(+) hydrolase SARM1 (Homo sapiens) (UniProt Q6SZW1)
# Experiment: blocking NAD cleavage by SARM1 SAM-TIR – cell lysate, NAD-Glo luminescence (AID 1508614);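 also: higher remaining NAD means stronger inhibition of SARM1 NADase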
# Details: SAM-TIR HEK293T lysate NADase, at 1 µM
row,Structure (SMILES),remaining NAD
1,O=C(OC1CN2CCC1CC2)c1ccccc1 (stereo not drawn),inactive
2,O=P(O)(O)F,inactive
3,NC(=O)Nc1ccc([As](=O)(O)O)cc1,inactive
